# Experimental data reported in US7666985B2, “HLA-A24-restricted cancer antigen peptides” (International Institute of Cancer Immunology, Inc., priority 2002, dated 2010).
# System: Jurkat-A2402/K^b cells pulsed with the peptide
# Experiment: CTL-inducing activity (immunogenicity) in HLA-A2402/K^b transgenic mouse, 51Cr release assay
# Format: in vivo
# Details: HLA-A2402/K^b transgenic mice (three per peptide) immunized s.c. with peptide + helper peptide in IFA; splenocytes stimulated in vitro 6 days; peptide-pulsed vs non-pulsed Jurkat-A2402/K^b targets; E/T ratio of 80
# Experimental: […]; SEQ ID NO: 32), and examined whether specific CTLs are induced as is the case with human. Specifically, HER-2/neu780-788 and helper peptide were adjusted to 40 mg/ml and 20 mg/ml, respectively, in DMSO and diluted with a physiological saline to 2 mg/ml and 1 mg/ml, respectively. They were mixed with an equal amount of Freund's incomplete adjuvant (Wako Pure Chemical Industries, Ltd.) using a glass syringe to prepare a water-in-oil emulsion. The resultant preparation (200 μl) was injected into a transgenic mouse (04-1 line) subcutaneously in the base of the tail for immunization. Seven days after the initiation of experiment, the spleen was removed and grounded on the frosted part of glass slide, and splenocytes were recovered and prepared. A portion of the splenocytes undergone hemolysis treatment with an ACK buffer (0.15 M NH4Cl, 10 mM KHCO3, 0.1 mM EDTA, pH 7.2-7.4) was exposed to X ray radiation (2,000 rad), pulsed with the above-mentioned peptide (100 μg/ml) for 1 hour, and seeded into a 24-well plate at 0.7×10^6/well. […]
# CTL-inducing activity was determined by ^51Cr release assay (J. Immunol., 159:4753, 1997), wherein the previously prepared transgenic mouse splenocyte preparation was added to said Jurkat-A2402/K^b cells as the target cells.
# Immunogenicity of each antigen peptide was evaluated using the HLA-A2402/K^b transgenic mouse as constructed in aforementioned References. […]
substance,measurement,value
"Arg Met Phe Pro Asn Ala Pro Tyr Leu (RMFPNAPYL) [peptide A, natural peptide, positions 126 to 134 of human WT1]","immunogenicity (activity to induce CTLs; cytotoxic activity, % Specific Lysis)",have no immunogenicity; also recorded: no specific CTL was induced

# Entries after “also recorded” stand apart in the source; their conditions may differ.
